Reference: patent US11613587B2, “Combination therapy of T cell activating bispecific antigen binding molecules and PD-1 axis binding antagonists” (Hoffmann-La Roche Inc., priority 2014, dated 2023)

Test system: TIM-3 pathway in PBMCs
Assay: Mixed lymphocyte reaction (MLR), IFN-gamma secretion
Assay type: cell-based, human
Details: compound concentration 10 μg/ml, 6 days
Protocol: T cells in the assay were tested for activation and theier IFN-gamma secretion in the presence or absence of an anti-TIM-3 mAbs.
Human Lymphocytes were isolated from peripheral blood of healthy donor by density gradient centrifugation using Leukosep (Greiner Bio One, 227 288). Briefly, heparinized blood were diluted with the three fold volume of PBS and 25 ml aliquots of the diluted blood were layered in 50 ml Leukosep tubes. After centrifugation at 800×g for 15 min at room temperature (w/o break) the lymphocyte containing fractions were harvested, washed in PBS and used directly in functional assay or resuspended in freezing medium (10% DMSO, 90% FCS) at 1.0E+07 cells/ml and stored in liquid nitrogen. […] The levels of IFN-gamma were measured using OptEIA ELISA kit (BD Biosciences).

IL-2: rec hu IL-2 (20 EU/ml), positive control in MLR (=100%)
Percentage induced IFNgamma release in comparison to rec hu IL-2 (20 EU/ml) (=100%): 100%
